Values of other authors as cited in patent US6333348A, “Use of docetaxel for treating cancers” (Aventis Pharma S.A., priority 2000, dated 2001).

How the values were obtained:
[1] = tested on: cancers that express HER2; conditions: rhuMAb HER2 administered alone; first published study; cited from earlier work
[2] = rhuMAb HER2 alone; cited from earlier work
[3] = tested on: HER2/neu overexpressing human breast cancer xenografts; conditions: preclinical animal models; cited from earlier work
[4] = tested on: cancers that express HER2; conditions: 4 mg/kg loading dose, then 2 mg/kg weekly; alone; cited from earlier work

In the case of “rhuMAb HER2: recombinant humanized anti-HER2 antibody; active ingredient of HERCEPTIN® or else HERCEPTIN® itself”, the “overall objective response rate” value [1] is given as 11.6%, the cardiac dysfunction [2] is given as “associated with cardiac dysfunction” and the “neutropenia, alopecia and mucositis” value [2] is given as “rarely caused”. The “enhancement of antitumor activity of chemotherapeutic agents” value [3] was “enhances the antitumor activity of chemotherapeutic agents”, the “complete responses (number)” value [4] was “eight” and the “complete responses (rate)” value [4] was 4%. For the same substance, the “partial responses (number)” value [4] was 26 partial responses and the “partial responses (rate)” value [4] was 11%.
